Values quoted from earlier work, collected in article PMC3346155 (Drug Design, Development and Therapy, 2012).

Conditions: cited from earlier work

Substance: Octreotide [reference compound]
- mean t½: approximately 1.7 hours
